Laboratory results published in patent US20060194835A1, “Compositions and methods for treating or preventing flaviviridae infections” (priority 2005, published 2006).

Tested on: BVDV strain NADL
Assay: Inhibition of viral release from BVDV-infected MDBK cells (plaque titer)
Details: MOI = 1

NC(=O)c1ncn([C@@H]2O[C@H](CO)[C@@H](O)[C@H]2O)n1 [Ribavirin, ribavirin, reference compound]
TI (Therapeutic Index, CC50/EC50): ˜166
